Values quoted from earlier work as cited in patent US9808500B2, “Antithrombotic nanoparticle” (Washington University, priority 2009, dated 2017).

Biological target: thrombin (Homo sapiens, UniProt P00734)
Conditions: thrombin inhibitor, quoted; cited from earlier work

For `Cc1nc(N)ccc1CNC(=O)Cn1c(C)cnc(NCCc2ccccc2)c1=O`, the pKi is listed as 9.10.

pKi: −log10 of the molar value.
